From PubChem
An excerpt weighted towards active compounds, which were near 2.1% of everything screened.
PTAP TSG101 blk = blocks PTAP/TSG101 interaction to inhibit HIV-1 budding; Q99816; Fluorescence polarization, FITC-PTAP peptide / Tsg101 binding; Potency, µM (top dose mostly 115 µM), without a hit: at the highest dose activity change, negative = inhibition, most hits filed as inhibitors; 340,000 tested, under 10 active; AID 493005; active = well fitted inhibition curve with a large enough effect in the main read-out, with a control signal flat, not every such curve was filed as active; inconclusive = small, poorly fitted or top-dose-only effect, or effect the other way, or a change in a side signal; inactive = no such curve, though single readings can be large or run the other way; note: potency is the fitted concentration of half-maximal effect; % of control where 0% means no effect
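Fluorescence polarization binding of Tsg101 binding domain (10 uM final) to FITC-labeled PTAP peptide (50 nM final) in HEPES pH 7.5 buffer with NaCl, Tween 20, EDTA, TCEP. Compounds added before peptide; binding 20 min at RT.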
A549 viability = A549 cytotoxicity, counter-screen for Nrf2 inhibitors; Potency, µM (series often up to 46 µM), for inactives: at the top dose activity change, negative = cytotoxicity, actives largely listed as inhibitors; A549 ARE-Fluc cells, CellTiter-Fluor viability, 18-24 h; AID 504648; 390,000 compounds, 0.16% hits; note: potency is the fitted concentration of half-maximal effect; % is set by controls: 0 for no effect and ±100 for the full control effect
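A549 ARE-Fluc cells in 5% FBS OPTI-MEM, 5000 cells/well, rested 2 h then exposed to compounds in concentration-response for 18-24 h at 37 °C. Viability by CellTiter-Fluor fluorescence (Ex 405/Em 525) after 30 min; luciferase luminescence (BugLite, 15 min, RT) read afterwards.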
Nrf2 activator = Nrf2 pathway activation. AREc32 ARE-luciferase reporter (MCF7-derived line), luminescence, 24 h. AID 624171. Potency, µM (series often up to 46.1 µM), without a hit: at the top dose activation, usual class: activators. 410,000 compounds, 0.31% hits; note: potency is the fitted concentration of half-maximal effect; % of control where 0% means no effect; nearly all actives have a fitted effect of over 65% in size
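Each well held 1000 AREc32 cells, which were incubated with compound for 24 hr at 37 deg C after overnight attachment, and ARE reporter activity was quantified by firefly luciferase luminescence.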
Glioma ERSR ind = ER stress response induction in glioma; Potency, µM, inactives show at the top dose activation, usual class: activators; U87-MG GRP78 promoter luciferase reporter, 16 h; 420,000 compounds, 0.02% hits; note: potency is the fitted concentration of half-maximal effect; series mostly up to about 76 µM; % of control where 0% means no effect; nearly all actives have a fitted effect of over 35% in size
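ERSR induction read as luciferase luminescence (Bright-Glo, 10 min at room temperature) in stably transfected human U87-MG glioma cells exposed to compounds for 16 h, using GRP78 as sensor.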
miR-21 FLuc = raises the signal of a miR-21 reporter | HeLa miR-21 FLuc reporter, luciferase, 48 h | Potency, µM (highest dose often 38.3 µM), without a hit: at the top dose reporter change, positive = more light | 340,000 tested, under 10 active; active = well fitted rising curve with a large enough effect; inconclusive = small, poorly fitted or top-dose-only effect; inactive = no such curve, though single readings can be large or run the other way;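 note: % of control where 0% means no effect; miR-21 action dims this reporter so a rising signal means less miR-21 action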
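HeLa miR-21-FLuc reporter line, endogenous miR-21; 2000 cells/well in DMEM/10% FBS; compound titration up to ~40uM final, 48 h, 37 degree Celsius; luciferase detection reagent, 15 min lysis, CCD luminescence.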
Nrf2 inh = inhibitors of Nrf2 signaling; A549 ARE-Fluc reporter, luciferase luminescence, 18-24 h; Potency, µM (doses to about 46 µM), without a hit: top-dose activity change, negative = inhibition, usual class: inhibitors; 360,000 compounds, 2.1% hits; AID 504444; note: potency is the fitted concentration of half-maximal effect; % is set by controls: 0 for no effect and ±100 for the full control effect; nearly all actives have a fitted effect of over 60% in size
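A549 ARE_Fluc cells (5000/well, 5% FBS OPTI-MEM) pre-incubated 2 h, then treated with compounds 18-24 h at 37C/5% CO2 in concentration-response. CellTiter-Fluor viability read first; BugLite luciferase luminescence after 15 min at room temperature gives Nrf2 activity.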
Active calls of the source: *. Unless noted, calls come from the whole dose curve; as a rule, active = well fitted curve in the direction sought with a large enough effect; inconclusive = small, poorly fitted or top-dose-only effect, or another doubt; inactive = no such curve, though single readings can be large; an effect the other way counts as inactive or inconclusive.

Screening Cc1noc(C)c1-c1ccc2ncnc(NC3CCCc4ccccc43)c2c1 (configuration not stated) returned A549 viability 5% and Nrf2 inh inconclusive.
CC(O)(COc1ccccc1)c1ccc2c(c1)CN(Cc1cccn1-c1ccccn1)CCO2 (configuration not stated) was read as Glioma ERSR ind -3%.
`CSc1ccc(S(=O)(=O)Nc2ccc3c4c(cccc24)CC3)cc1` gave PTAP TSG101 blk -2%, A549 viability inconclusive, Nrf2 activator 0%, Glioma ERSR ind -3%, miR-21 FLuc 1% and Nrf2 inh 18µM*.
O=S(=O)(Nc1ccc2c3c(cccc13)CC2)c1ccc(F)cc1 was read as PTAP TSG101 blk 0%, A549 viability 3%, Nrf2 activator 3%, Glioma ERSR ind 8% and miR-21 FLuc 0%.
Screening Cc1ccc(CN2CCc3c(OCc4ccc(F)cc4)cccc3C2=O)cc1 returned PTAP TSG101 blk -1%, A549 viability 3%, Nrf2 activator 2%, Glioma ERSR ind -4%, miR-21 FLuc 23% and Nrf2 inh inconclusive.
O=C1c2cccc(OCc3ccc(F)cc3)c2CCN1Cc1ccc(F)cc1 was read as PTAP TSG101 blk -10%, A549 viability -5%, Nrf2 activator 0%, Glioma ERSR ind -4%, miR-21 FLuc 27% and Nrf2 inh 16µM*.
`N#C/C(=C\c1ccc(N2CCOCC2)o1)c1ccccc1` gave PTAP TSG101 blk 15%, A549 viability -3%, Nrf2 activator 14µM*, Glioma ERSR ind 11%, miR-21 FLuc inconclusive and Nrf2 inh inconclusive.
N#C/C(=C/c1ccc(N2CCOCC2)o1)c1nc2ccccc2[nH]1 was read as PTAP TSG101 blk inconclusive, A549 viability inconclusive, Nrf2 activator 0%, Glioma ERSR ind -9% and miR-21 FLuc -38%.
Screening N#C/C(=C/c1ccc(N2CCCCCC2)o1)c1cccc(F)c1 returned PTAP TSG101 blk inconclusive, A549 viability inconclusive, Nrf2 activator 13µM*, Glioma ERSR ind inconclusive and miR-21 FLuc -1%.
`N#C/C(=C\c1ccc(N2CCOCC2)o1)C(=O)Nc1ccc(O)cc1` gave PTAP TSG101 blk inconclusive, A549 viability -18%, Nrf2 activator 2%, Glioma ERSR ind 5%, miR-21 FLuc -31% and Nrf2 inh inconclusive.
`N#C/C(=C/c1ccc(N2CCOCC2)o1)c1ccc(Br)cc1` gave PTAP TSG101 blk inconclusive, A549 viability -19%, Nrf2 activator 11µM*, Glioma ERSR ind 8%, miR-21 FLuc 0% and Nrf2 inh 7%.
`N#C/C(=C/c1ccc(N2CCCCCC2)o1)c1ccc(F)cc1` gave PTAP TSG101 blk inconclusive, A549 viability -13%, Nrf2 activator 25%, Glioma ERSR ind -11% and Nrf2 inh inconclusive.
Screening OCC1OC(OC2C(CO)OC(OC3C(CO)OC(O)C(O)C3O)C(O)C2O)C(O)C(O)C1O (configuration not stated) returned Glioma ERSR ind -4%.
`CN(C)c1ccc(/C=C/c2ncnc3ccccc23)cc1` gave Glioma ERSR ind -2%.
`O=C(NC(=S)Nc1ccccc1)c1ccc(Br)o1` gave PTAP TSG101 blk -4%, A549 viability 5%, Nrf2 activator inconclusive, Glioma ERSR ind -1%, miR-21 FLuc -40% and Nrf2 inh inconclusive.
For NC(=O)c1ccccc1NC(=S)NC(=O)c1ccc(Br)o1 the results were PTAP TSG101 blk -2%, A549 viability 0%, Nrf2 activator 14µM*, Glioma ERSR ind 5%, miR-21 FLuc -43% and Nrf2 inh inconclusive.
CCOC(=O)N1CCC(N2C(=O)c3ccccc3C2Nc2ccccc2C)CC1 (configuration not stated) was read as PTAP TSG101 blk 0%, A549 viability -2%, Nrf2 activator 4%, Glioma ERSR ind 0%, miR-21 FLuc -4% and Nrf2 inh 12%.
`CCOC(=O)c1ccccc1NC1c2ccccc2C(=O)N1C1CCN(C(=O)OCC)CC1` (configuration not stated) gave PTAP TSG101 blk -2%, A549 viability 3%, Nrf2 activator 4%, Glioma ERSR ind -5%, miR-21 FLuc -10% and Nrf2 inh 16µM*.
Cc1cnc(SCC2CCCO2)nc1C1CCCN(Cc2cc3c(cc2Cl)OCO3)C1 (configuration not stated) was read as Glioma ERSR ind -5%.
For O=C1CCc2cc(S(=O)(=O)Nc3ccc(-c4ccccc4)cc3)ccc2N1 the results were A549 viability 2% and Nrf2 inh 12µM*.
COc1cccc(NS(=O)(=O)c2ccc3c(c2)CCC(=O)N3)c1 was read as A549 viability -2% and Nrf2 inh inconclusive.
O=C(CCc1ccc(O)cc1)c1c(O)cc(O)cc1O was read as PTAP TSG101 blk -2%, A549 viability -4%, Nrf2 activator 13%, Glioma ERSR ind 3%, miR-21 FLuc -1% and Nrf2 inh 22%.
`COc1cc(O)c(CC=C(C)C)c(O)c1C(=O)CCc1ccc(O)cc1` gave PTAP TSG101 blk -2%, A549 viability inconclusive, Nrf2 activator -1%, Glioma ERSR ind -3%, miR-21 FLuc 10% and Nrf2 inh 26µM*.
For Cc1cnc(-n2ncc(C(=O)NCCc3ccccn3)c2C)nc1-c1ccc(F)cc1 the results were Glioma ERSR ind -2%.
`Cc1nc2cc(NS(=O)(=O)c3cccc4cccnc34)ccc2s1` gave PTAP TSG101 blk 0%, A549 viability 1%, Nrf2 activator 1%, Glioma ERSR ind -4%, miR-21 FLuc 11% and Nrf2 inh 26µM*.
Screening Cc1ccc(NC2=Nc3ccccc3N3C2=Nc2c(c(C)nn2-c2ccccc2)C3c2ccc(O)c(O)c2)cc1 (configuration not stated) returned PTAP TSG101 blk -11%, A549 viability inconclusive, Nrf2 activator -1%, Glioma ERSR ind -3%, miR-21 FLuc 27% and Nrf2 inh 18µM*.
For Cc1ccc(C(=O)Nc2cccc(-c3nc(CNC(=O)[C@@H]4C[C@@H](C)NC(=S)N4)c(C)o3)c2)s1 the results were Glioma ERSR ind 12%.
For CC(C)Cc1ccc(S(=O)(=O)Nc2ccc3[nH]c(=O)[nH]c3c2)cc1 the results were PTAP TSG101 blk 0%, A549 viability 0%, Nrf2 activator 1%, Glioma ERSR ind -4%, miR-21 FLuc 8% and Nrf2 inh 18µM*.

Arranged by length of the SMILES (falling): 4 of the compounds above.
For Cc1ccc(C(=O)Nc2cccc(-c3nc(CNC(=O)[C@@H]4C[C@@H](C)NC(=S)N4)c(C)o3)c2)s1 the results were Glioma ERSR ind 12%.
For CC(C)Cc1ccc(S(=O)(=O)Nc2ccc3[nH]c(=O)[nH]c3c2)cc1 the results were PTAP TSG101 blk 0%, A549 viability 0%, Nrf2 activator 1%, Glioma ERSR ind -4%, miR-21 FLuc 8% and Nrf2 inh 18µM*.
COc1cccc(NS(=O)(=O)c2ccc3c(c2)CCC(=O)N3)c1 was read as A549 viability -2% and Nrf2 inh inconclusive.
O=C(CCc1ccc(O)cc1)c1c(O)cc(O)cc1O was read as PTAP TSG101 blk -2%, A549 viability -4%, Nrf2 activator 13%, Glioma ERSR ind 3%, miR-21 FLuc -1% and Nrf2 inh 22%.
